Measurements reported in patent US4764603A, “Stable salts of S-adenosyl-L-methionine with polyanions” (priority 1985, dated 1988).

What was measured:
[1] = rat, in vivo, 10 mg/kg
[2] = Excerpt: The liquors are removed by simple decantation and the precipitate is washed twice with 10 l of distilled H2 O while keeping the system under strong stirring.

polyphosphate
absorption at the gastric level [1]: not absorbed | absorption of radioactivity relative to SAM sulfate [1]: superimposable to what is found for SAM sulfate | gastric residence time relative to SAM-sulfate [1]: shorter than SAM-sulfate | residence time at the gastric level [1]: less than 2 hours | solubility in water at pH <4 / acid medium [2]: insoluble in acidic medium
